Assay results from patent US20020127208A1, “Method of transplantation using chemotherapy-treated allogeneic cells that enhance immune responses without graft versus host disease” (priority 2000, published 2002).

System: C1498 leukemia cell targets

“9-beta-D-arabinosyl-2-fluoroadenine [Fludarabine]” was tested, and the “Reduction in cytotoxicity of CTL's” value (splenocytes treated 20 μg/ml, 24hr prior to allo-stimulation, E:T 20:1, vs control culture) was 57% and the “Cytotoxicity of allo-primed CTL's vs non-treated control” value (treated with fludarabine on day 10 of an MLR) was “not significantly different”.
